Measurements as given in US7659252B2, “Transdermal delivery peptides and method of use thereof” (Novomed Technologies, Inc. (Shanghai), priority 2005, dated 2010).

Assays:
Male Wistar rats = assay: Phage delivery across trimmed abdominal skin, phage titre in tail-vein blood; assay type: in vivo, rat; conditions: 10^12 pfu, 1 hour post topical administration
Experimental: Phage delivery: Male Wistar rats (180 g to 220 g) were housed at a constant temperature (22° C.) and relative humidity (60%) with a fixed 12 hr. light/dark cycle, and free access to food and water. While the animals were anesthetized with Vrethane (5 ml/kg of 20% solution), the hair in an area of approximately 3.0 cm×3.0 cm on the abdomen was carefully trimmed using scissors, with caution not to damage the skin (rats with any visible sign of skin damage were not used). […] One hour after the phage administration blood was withdrawn from the tail vein and immediately assayed for phage titre according to manufacturer's protocol.

[1] = test system: dexamethasone-treated rats; assay: Transdermal delivery of human growth hormone, serum hGH by ELISA; assay type: in vivo, rat; conditions: for hGH in the systemic circulation: 500 μg hGH co-administered with peptide (TD-1 100 or 500 μg; AP-1 100 μg)
Experimental: Growth hormone delivery: To assess whether TD-1 can deliver a different protein drug, a recombinant human growth hormone (hGH, 500 μg) and TD-1 were co-administered at two different doses to the abdominal skin of Wistar rats, which had been treated with dexamethasone (12.5 mg/kg) for two days. In particular, male Wistar rats were given daily subcutaneous injection of dexamethasone (12.5 mg/kg; Sigma). After 2 days of treatment they were randomly assigned to different treatment groups, with 3 to 4 rats for each group. […] After the co-administration, blood was drawn from the rat tail vein at various time points: 0, 2, 5, and 8 hours, and the amount of growth hormone in the serum was assayed using ELISA (Diagnostic Systems Laboratories, Webster, Tex.). The various groups were compared to the saline+hGH group on each time point, using independent samples t-test.

[2] = test system: streptozotocin-induced diabetic rats; assay: Transdermal insulin delivery: serum insulin and blood glucose; assay type: in vivo, rat; conditions: for Serum Insulin Mean: 5 hr value minus 0 hr value, 500 μg peptide + 70 μg insulin topical; for transdermal efficiency of insulin after TD-1 pre-treatment (serum insulin): TD-1 5 min, washed off
Experimental: (§1) Insulin delivery: In particular, male Wistar rats were given intraperitoneal injection of straptozotocin (60 mg/kg; Sigma-Aldrich, St. Louis, […].) to make these rats in diabetic states. Seven to 10 days post injection blood glucose level was measured using One-Touch Ultra Glucometer (LifeScan, Milpitas, Calif.). The straptozocin-induced (SD-induced) diabetic rats with blood glucose level of over 20 mmol/l (normal rats are between 4 and 6 mmol/l) were selected and randomly assigned to different treatment groups, with 6 rats for each group. […] The SLA/PP is a chemical enhancer combination recently identified from high-throughput screening (Karande et al., […], Nature Biotech. 22:192). Moreover, in other transdermal treatment groups, 100 μl saline was given to each rat in that group. For the subcutaneous treatment group, 14 μg of insulin per rat was injected.
Blood was drawn from the rat tail vein at these time points and assayed for blood glucose as described above and serum insulin by radioimmunoassay (Immunotech, Czech).
Blood glucose and serum insulin were measured before and 5 hrs. after the administration as described above.

anesthetized Wistar rats = assay: ^125I-insulin transdermal delivery, radioactivity in whole blood; assay type: in vivo, rat; conditions: co-administered with 4, 8 or 16 μg TD-1
Experimental: as §1

[3] = DLS measurements of insulin with or without TD-1; assay type: physicochemical; conditions: pH 2.0, 3.0 and 7.0
Experimental: DLS measurements: To determine whether TD-1 mediates skin penetration by altering the molecular form of insulin, dynamic light-scattering studies (DLS) were performed. In particular, insulin (1 mg), with or without TD-1 (2.5 mg), was solubilized in 500 ml of saline in small scintillation glass vials and the pH was adjusted to 2.0 or 3.0 with 1 M HCl and 7.0 with 1 M NaOH. The solutions were transferred to a centrifuge tube and spun for 10 min at 10000 rpm. 40 μl of the supernatant were filtered by ANODISC™ membrane filter with a pore size of 0.02 μm (Whatman International, Maidstone, UK) and taken for DLS measurement using DynaPro™ MS 800 (Wyatt technology Corporation/Protein Solutions, Santa Barbara, Calif.).

[4] = Octanol-water partition coefficient; assay type: physicochemical; conditions: 25° C., HPLC
Experimental: Determination of octanol-water partition coefficient: n-Octanol and water were presaturated with each other by vigorous mixing and letting to stand at 25° C. for 24 h. 10 mg of TD-1 was transferred to a 15-ml screw-capped centrifuge tube, and pre-saturated octanol and water (2.5 ml each) were added. The mixture was vigorously shaken for 10 min, let to stand at 25° C. for 12 h, and then centrifuged (400 g, 10 min) to achieve good separation of two phases. TD-1 concentrations in the two phases were determined by HPLC and used to compute log Pow. For HPLC, a 250×4.6 mm reverse C18 analytical column (COSMOSIL) was used with the mobile phase consisting of 30% acetonitrile/O/1% TFA and 70% water/0.1% TFA and a flow rate of 1 ml/min with an injection loop of 20 μl. Detection was at 230 nm.

[5] = 500 μg TD-1 + 70 μg porcine insulin, topical

ACNATLPHQCG [AP-1, reference compound]
average titre in blood (Male Wistar rats): no infective phage particles detected | hGH in the systemic circulation [1]: undetetable

ACSASPSKHCG [TD-24]
Serum Insulin Mean [2]: 0.7442 ng/mL

ACSSSASKHCG [TD-3]
Serum Insulin Mean [2]: 0.4017 ng/mL

ACSSSPAKHCG [TD-6]
Serum Insulin Mean [2]: 1.6198 ng/mL

ACSSSPSAHCG [TD-22]
Serum Insulin Mean [2]: 0.7939 ng/mL

ACSSSPSDHCG [TD-4]
Serum Insulin Mean [2]: 0.7765 ng/mL

ACSSSPSKACG [TD-23]
Serum Insulin Mean [2]: 1.0422 ng/mL

ACSSSPSKHCG [TD-1]
time at which significant amounts of hGH were achieved ([1]; 500 μg hGH + 100 or 500 μg TD-1): 2 h | hGH in the systemic circulation [1]: enabled hGH to reach systemic circulation | hGH delivery, 100 μg TD-1 compared with 500 μg TD-1 ([1]; 500 μg hGH, 100 μg TD-1): more effective than 500 μg TD-1 | time at which elevated serum insulin was detectable [2, 5]: 2 h | time of return of serum insulin to basal level [2, 5]: 11 h | time of serum insulin peak [2, 5]: 5 h | lowering of transdermal efficiency at pH 7.0 compared with the pH 3.0 group ([2]; 500 μg TD-1 + 200 μg insulin, 5 hr): about 20% | Serum Insulin Mean [2]: 3.9224 ng/mL | transdermal efficiency of insulin after TD-1 pre-treatment (serum insulin) ([2]; no waiting period before insulin): about the same as that observed under the TD-1 and insulin co-administration | transdermal efficiency of insulin after TD-1 pre-treatment (serum insulin) ([2]; waiting period 15 minutes or more): dramatically decreased | transdermal efficiency of insulin after TD-1 pre-treatment (serum insulin) ([2]; waiting time 5 minutes): significant amount of insulin to reach blood circulation | transdermal efficiency of insulin (serum insulin) ([2]; pH 2.0, 500 μg TD-1 + 200 μg insulin, 5 hr): 2.95 to 3.84 ng/mL | transdermal efficiency of insulin (serum insulin) ([2]; pH 3.0, 500 μg TD-1 + 200 μg insulin, 5 hr): 2.85 to 3.42 ng/mL | transdermal efficiency of insulin (serum insulin) ([2]; pH 7.0, 500 μg TD-1 + 200 μg insulin, 5 hr): 2.08 to 2.45 ng/mL | delivery of ^125I-insulin to whole blood (anesthetized Wistar rats): effective | time at which significant ^125I in whole blood was detectable (anesthetized Wistar rats): 2 h | effect on the apparent molecular weights of insulin [3]: did not significantly alter | octanol/water partition coefficient (log Pow) [4]: −3.03

ACSSSSSKHCG [TD-10]
Serum Insulin Mean [2]: 3.4505 ng/mL

CSSSPSKHC [TD-2]
Serum Insulin Mean [2]: 1.7480 ng/mL
